Assay results: BindingDB's records for patent US11433071 (Incyte Corporation; Incyte Holdings Corporation, 2022)

Molecular target: T1, Phosphatidylinositol 4,5-bisphosphate 3-kinase catalytic subunit delta isoform (Homo sapiens, UniProt O00329)
T1 sequence (O00329 whole entry): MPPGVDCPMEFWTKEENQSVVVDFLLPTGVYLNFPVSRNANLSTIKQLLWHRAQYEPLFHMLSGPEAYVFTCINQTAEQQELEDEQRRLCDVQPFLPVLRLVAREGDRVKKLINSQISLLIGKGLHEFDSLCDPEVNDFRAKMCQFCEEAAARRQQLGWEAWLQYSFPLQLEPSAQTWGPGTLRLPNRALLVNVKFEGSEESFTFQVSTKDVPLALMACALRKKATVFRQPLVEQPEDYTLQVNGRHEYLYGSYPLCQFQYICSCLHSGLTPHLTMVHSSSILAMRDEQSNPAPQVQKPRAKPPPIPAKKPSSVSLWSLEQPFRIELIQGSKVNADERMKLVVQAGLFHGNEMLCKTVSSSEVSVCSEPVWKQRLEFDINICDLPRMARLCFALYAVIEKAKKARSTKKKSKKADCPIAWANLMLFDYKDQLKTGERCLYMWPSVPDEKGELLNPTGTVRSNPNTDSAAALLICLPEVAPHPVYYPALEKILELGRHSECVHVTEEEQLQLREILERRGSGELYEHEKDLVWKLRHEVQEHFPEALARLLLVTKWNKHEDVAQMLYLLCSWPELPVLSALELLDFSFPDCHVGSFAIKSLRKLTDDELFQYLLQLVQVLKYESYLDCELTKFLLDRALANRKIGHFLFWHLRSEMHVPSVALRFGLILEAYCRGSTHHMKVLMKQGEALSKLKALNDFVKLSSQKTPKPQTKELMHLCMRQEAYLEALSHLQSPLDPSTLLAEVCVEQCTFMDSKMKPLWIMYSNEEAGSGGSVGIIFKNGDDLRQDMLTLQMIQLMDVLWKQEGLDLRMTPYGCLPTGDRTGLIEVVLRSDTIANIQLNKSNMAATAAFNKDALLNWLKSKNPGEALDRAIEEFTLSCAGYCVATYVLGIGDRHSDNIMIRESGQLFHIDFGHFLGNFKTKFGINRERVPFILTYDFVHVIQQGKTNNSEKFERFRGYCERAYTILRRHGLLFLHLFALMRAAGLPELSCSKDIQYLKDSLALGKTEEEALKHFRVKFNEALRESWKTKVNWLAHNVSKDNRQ
Test: PI3Kδ Scintillation Proximity Assay
Experimental: The kinase reaction was conducted in polystyrene 384-well matrix white plate from Thermo Fisher Scientific in a final volume of 25 μL. Inhibitors were first diluted serially in DMSO and added to the plate wells before the addition of other reaction components. The final concentration of DMSO in the assay was 0.5%. The PI3K assays were carried out at room temperature in 20 mM MOPS, pH 6.7, 10 mM MgCl2, 5 mM DTT and CHAPS 0.03%. Reactions were initiated by the addition of ATP, the final reaction mixture consisted of 20 μM PIP2, 20 μM ATP, 0.2 μCi [γ-33P] ATP, 4 nM PI3Kδ. Reactions were incubated for 210 min and terminated by the addition of 40 μL SPA beads suspended in quench buffer: 150 mM potassium phosphate pH 8.0, 20% glycerol. 25 mM EDTA, 400 µM ATP. The final concentration of SPA beads was 1.0 mg/mL. After the plate sealing, plates were shaken overnight at room temperature and centrifuged at 1800 rpm for 10 minutes, the radioactivity of the product was determined by scintillation counting on Topcount (Perkin-Elmer).

IC50: < 10 nM
Structure (SMILES): CCOc1c(C(C)n2nc(C)c3c(N)ncnc32)cc(C)c(C#N)c1C1CN(c2ccc(C(=O)N(C)C)nc2)C1 (stereo unspecified) [US11433071, Example 344]
